{
  "sequences": {"note": "Sequences of proteins named here, by UniProt entry; tags and fusion partners are left off. A change or cut given only in a name is not applied to a line headed by its entry.", "UniProt P41146": "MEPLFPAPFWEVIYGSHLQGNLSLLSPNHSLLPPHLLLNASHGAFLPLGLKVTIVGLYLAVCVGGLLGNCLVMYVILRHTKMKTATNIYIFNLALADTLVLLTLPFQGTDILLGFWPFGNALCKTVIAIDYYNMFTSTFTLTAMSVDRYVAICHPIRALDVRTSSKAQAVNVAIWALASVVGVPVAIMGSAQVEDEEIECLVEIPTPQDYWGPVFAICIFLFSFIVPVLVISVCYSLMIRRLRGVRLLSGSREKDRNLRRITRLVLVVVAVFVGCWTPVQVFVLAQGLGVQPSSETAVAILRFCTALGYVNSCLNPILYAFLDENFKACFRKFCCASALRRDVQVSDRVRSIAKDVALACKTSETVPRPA"},
  "source": "patent US6716846B2",
  "about": "“High affinity ligands for nociceptin receptor ORL-1” (Schering Corporation, priority 1998, dated 2004)",
  "key": {"[1]": {"target": "T1, ORL-1 receptor (Homo sapiens, UniProt P41146)", "experiment": "Agonist activity: stimulation of [35S]-GTPγS binding", "type": "biochemical", "conditions": "compound at 100 nM"}, "[2]": {"target": "T1, ORL-1 receptor", "experiment": "Nociceptin binding assay ([125I][Tyr14]nociceptin, CHO cell membranes)", "conditions": "CHO cell membrane preparation expressing the ORL-1 receptor"}},
  "note": "pKi: −log10 of the molar value.",
  "data": [
    {"compound": "OC1(c2ccccc2)CC2CCC(C1)N2C(c1ccccc1)c1ccccc1F", "note": "(stereo not shown)", "values": [
      {"measurement": "% Stimulation of [35S]-GTPγS binding to human ORL-1 receptor @ 100 nM", "setting": "[1]", "result": 120, "unit": "%"}
    ]},
    {"compound": "NCc1ccccc1C1(O)CCN(C(c2ccccc2Cl)c2ccccc2Cl)CC1", "values": [
      {"measurement": "% Stimulation of [35S]-GTPγS binding to human ORL-1 receptor @ 100 nM", "setting": "[1]", "result": 71, "unit": "%"},
      {"measurement": "pKi", "setting": "[2]", "result": 9.22}
    ]},
    {"compound": "c1ccc(C(c2ccccc2)N2CCC3(CC2)OCc2ccccc23)cc1", "values": [
      {"measurement": "pKi", "setting": "[2]", "result": 7.11}
    ]},
    {"compound": "CCCCCC(c1ccccc1)N1CCC(O)(c2ccccc2CN)CC1", "note": "(stereo not shown)", "values": [
      {"measurement": "% Stimulation of [35S]-GTPγS binding to human ORL-1 receptor @ 100 nM", "setting": "[1]", "result": 59, "unit": "%"}
    ]},
    {"compound": "CCCCC(c1ccc(F)cc1)N1CCC2(CC1)C(=O)NCN2c1ccccc1", "note": "(stereo not shown)", "values": [
      {"measurement": "% Stimulation of [35S]-GTPγS binding to human ORL-1 receptor @ 100 nM", "setting": "[1]", "result": 107, "unit": "%"}
    ]},
    {"compound": "OC1(c2ccccc2)CC2CCC(C1)N2C(c1ccccc1Br)c1ccccc1Br", "note": "(stereo not shown)", "values": [
      {"measurement": "% Stimulation of [35S]-GTPγS binding to human ORL-1 receptor @ 100 nM", "setting": "[1]", "result": 70, "unit": "%"}
    ]},
    {"compound": "COCCn1c(=O)n(C2CCN(C(c3ccccc3Cl)c3ccccc3Cl)CC2)c2ccccc21", "values": [
      {"measurement": "% Stimulation of [35S]-GTPγS binding to human ORL-1 receptor @ 100 nM", "setting": "[1]", "result": 15, "unit": "%"}
    ]},
    {"compound": "NC(=O)Cn1c(=O)n(C2CCN(C(c3ccccc3)c3ccccc3)CC2)c2ccccc21", "values": [
      {"measurement": "% Stimulation of [35S]-GTPγS binding to human ORL-1 receptor @ 100 nM", "setting": "[1]", "result": 43, "unit": "%"}
    ]},
    {"compound": "O=C1N(CCN2CCC[C@@H]2CO)CN(c2ccccc2)C12CCN(C(c1ccccc1Cl)c1ccccc1Cl)CC2", "values": [
      {"measurement": "% Stimulation of [35S]-GTPγS binding to human ORL-1 receptor @ 100 nM", "setting": "[1]", "result": 77, "unit": "%"}
    ]},
    {"compound": "NC1(c2ccccc2)CCN(C(c2ccccc2)c2ccccc2)CC1", "values": [
      {"measurement": "pKi", "setting": "[2]", "result": 6.70}
    ]},
    {"compound": "NCc1ccccc1C1(O)CCN(Cc2ccccc2Cl)CC1", "values": [
      {"measurement": "% Stimulation of [35S]-GTPγS binding to human ORL-1 receptor @ 100 nM", "setting": "[1]", "result": 43, "unit": "%"}
    ]},
    {"compound": "OC1(c2ccc(Br)cc2)CCN(C(c2ccccc2)c2ccccc2)CC1", "values": [
      {"measurement": "pKi", "setting": "[2]", "result": 7.22}
    ]}
  ]
}
